Reference: PubChem BioAssay AID777 (Sanford-Burnham Center for Chemical Genomics, 2007)
This is a selection; strong and weak results do not stand in their true shares. Some of these compounds have results that are not shown, active ones among them. Active and inactive are the calls of the source.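 How the source made its calls: active means blocking of liver enzyme CYP2C9 beyond about 50% at 5 µM (limit read from the data); inactive means the rest.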

Protein sequences, listed by entry. Tags and fused reporters are not part of them.
UniProt P11712, whole entry: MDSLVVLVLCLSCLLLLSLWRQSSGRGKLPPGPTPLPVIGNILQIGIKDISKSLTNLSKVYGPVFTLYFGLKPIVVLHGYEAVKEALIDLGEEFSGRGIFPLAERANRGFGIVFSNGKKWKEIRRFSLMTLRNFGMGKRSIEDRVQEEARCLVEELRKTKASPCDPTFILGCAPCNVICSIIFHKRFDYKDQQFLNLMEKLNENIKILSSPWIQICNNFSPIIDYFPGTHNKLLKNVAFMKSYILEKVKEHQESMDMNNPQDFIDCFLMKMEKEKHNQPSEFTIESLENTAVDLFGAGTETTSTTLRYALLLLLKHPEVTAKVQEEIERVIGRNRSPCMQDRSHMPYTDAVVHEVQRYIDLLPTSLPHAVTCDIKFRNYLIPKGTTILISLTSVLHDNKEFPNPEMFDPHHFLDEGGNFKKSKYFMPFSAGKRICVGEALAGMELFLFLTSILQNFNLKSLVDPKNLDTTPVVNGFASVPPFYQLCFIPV

Each compound was assayed against Cytochrome P450 2C9 (Homo sapiens) (UniProt P11712) (assay: blockers of cytochrome P450 2C9 activity – biochemical, luminescence, ADME assay, primary screen (AID 777)). Details: CYP2C9 Supersomes, luciferin-H conversion, at 5 µM, stronger effect = higher value.

| SMILES | inhibition |
| --- | --- |
| CC(C)N1C(=O)CC2(CCN(CCOC(=O)C(O)(c3ccccc3)c3ccccc3)CC2)C1=O | inactive: -5.3% |
| CN(C)c1cccc(C(=O)NCC2(N(C)C)CCCCC2)c1 | inactive: -5.6% |
| O=C(OC1CN2CCC1CC2)C(CO)(c1ccccc1)c1ccccc1 (stereo not drawn) | inactive: 8.1% |
